According to PubChem BioAssay (NCATS):
The entries are a selection whose mix differs from that of the whole data set. Inconclusive results are not listed. Activity calls are given as the source filed them. Unless noted, calls follow the shape of the dose curve; as a rule, active = well fitted curve in the direction sought with a large enough effect; inconclusive = small, poorly fitted or top-dose-only effect, or another doubt; inactive = no such curve, though single readings can be large; an effect the other way counts as inactive or inconclusive.

Chains of the proteins cited; added tags and fusions are not shown. Lines headed by an entry give the natural chain unless they say otherwise; changes in a name come on top.
UniProt O15297: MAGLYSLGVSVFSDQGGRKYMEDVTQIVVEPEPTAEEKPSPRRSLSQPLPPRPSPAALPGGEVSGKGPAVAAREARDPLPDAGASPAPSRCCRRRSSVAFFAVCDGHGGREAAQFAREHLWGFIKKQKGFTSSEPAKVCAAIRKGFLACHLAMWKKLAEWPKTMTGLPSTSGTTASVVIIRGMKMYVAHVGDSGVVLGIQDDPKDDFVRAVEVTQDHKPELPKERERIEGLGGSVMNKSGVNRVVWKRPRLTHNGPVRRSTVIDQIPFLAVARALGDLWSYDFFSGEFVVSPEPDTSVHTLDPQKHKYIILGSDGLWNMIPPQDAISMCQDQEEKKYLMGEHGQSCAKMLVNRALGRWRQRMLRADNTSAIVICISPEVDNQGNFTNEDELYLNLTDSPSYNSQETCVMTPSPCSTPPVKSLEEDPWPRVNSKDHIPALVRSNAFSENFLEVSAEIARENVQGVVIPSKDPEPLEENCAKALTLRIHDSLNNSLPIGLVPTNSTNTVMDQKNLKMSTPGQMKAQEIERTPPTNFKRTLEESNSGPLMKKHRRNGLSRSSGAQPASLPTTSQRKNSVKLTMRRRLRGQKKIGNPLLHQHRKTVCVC
UniProt Q99828: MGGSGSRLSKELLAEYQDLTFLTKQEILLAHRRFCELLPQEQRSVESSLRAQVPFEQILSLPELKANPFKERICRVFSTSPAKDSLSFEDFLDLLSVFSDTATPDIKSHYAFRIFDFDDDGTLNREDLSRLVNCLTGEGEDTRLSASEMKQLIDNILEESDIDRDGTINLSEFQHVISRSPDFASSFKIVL

Legend:
[1] = qHTS Assay for Identifying Gametocytocidal Compounds (AID 743244); also: potency is read from the fitted curve at half-maximal effect; settings: P. falciparum 3D7 stage III-V gametocytes, alamarBlue, 72 h; max response: active compounds read low
[2] = qHTS of pediatric cancer cell lines to identify multiple opportunities for drug repurposing: Primary screen for TC32 cells (AID 1347089); settings: TC32 Ewing sarcoma viability, CellTiter-Glo luminescence, 48 h; at 45.8 µM (top of the series) unless noted; also: % is scaled to controls: 0 for no effect and ±100 for the full control effect; nearly all actives have a fitted effect of over 60% in size
[3] = qHTS of pediatric cancer cell lines to identify multiple opportunities for drug repurposing: Primary screen for DAOY cells (AID 1347090);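 also: plate controls were DMSO for no effect and bortezomib for full effect; nearly all actives have a fitted effect of over 55% in size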
[4] = qHTS of pediatric cancer cell lines to identify multiple opportunities for drug repurposing: Primary screen for SJ-GBM2 cells (AID 1347091); settings: SJ-GBM2 viability, CellTiter-Glo luminescence, 48 h; at 46 µM (top of the series) unless noted;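 also: plate controls were DMSO neutral control for no effect and bortezomib for full effect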
[5] = qHTS of pediatric cancer cell lines to identify multiple opportunities for drug repurposing: Primary screen for A673 cells (AID 1347092); settings: A673 Ewing sarcoma viability, CellTiter-Glo ATP luminescence, 48 h; at 46 µM (top of the series) unless noted; also: % is scaled to controls: 0 for no effect and ±100 for the full control effect; nearly all actives have a fitted effect of over 45% in size
[6] = qHTS of pediatric cancer cell lines to identify multiple opportunities for drug repurposing: Primary screen for SK-N-MC cells (AID 1347093); settings: SK-N-MC viability, CellTiter-Glo luminescence, 48 h; at 46 µM (top of the series) unless noted;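 also: plate controls were DMSO neutral control for no effect and bortezomib for full effect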
[7] = qHTS of pediatric cancer cell lines to identify multiple opportunities for drug repurposing: Primary screen for BT-37 cells (AID 1347094); settings: BT-37 viability, CellTiter-Glo luminescence, 48 h; at 57.3 µM (top of the series) unless noted;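 also: plate controls were DMSO for no effect and bortezomib for full effect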
[8] = qHTS of pediatric cancer cell lines to identify multiple opportunities for drug repurposing: Primary screen for NB-EBc1 cells (AID 1347095); settings: NB-EBc1 neuroblastoma viability, CellTiter-Glo luminescence, 48 h; at 46 µM (top of the series) unless noted;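 also: plate controls were DMSO neutral control for no effect and bortezomib for full effect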
[9] = qHTS of pediatric cancer cell lines to identify multiple opportunities for drug repurposing: Primary screen for U-2 OS cells (AID 1347096); settings: U-2 OS viability, CellTiter-Glo luminescence, 48 h; at 46 µM (top of the series) unless noted;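 also: plate controls were DMSO wells for no effect and bortezomib positive control wells for full effect; nearly all actives have a fitted effect of over 50% in size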
[10] = qHTS of pediatric cancer cell lines to identify multiple opportunities for drug repurposing: Primary screen for Saos-2 cells (AID 1347097); settings: Saos-2 viability, CellTiter-Glo ATP luminescence, 48 h; at 46 µM (top of the series) unless noted; also: % is scaled to controls: 0 for no effect and ±100 for the full control effect; nearly all actives have a fitted effect of over 40% in size
[11] = qHTS of pediatric cancer cell lines to identify multiple opportunities for drug repurposing: Primary screen for NB1643 cells (AID 1347099); settings: NB1643 neuroblastoma viability, CellTiter-Glo luminescence, 48 h; at 46 µM (top of the series) unless noted;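 also: plate controls were DMSO neutral control for no effect and bortezomib positive control for full effect; nearly all actives have a fitted effect of over 50% in size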
[12] = qHTS of pediatric cancer cell lines to identify multiple opportunities for drug repurposing: Primary screen for LAN-5 cells (AID 1347100); settings: LAN-5 neuroblastoma viability, CellTiter-Glo luminescence, 48 h; at 46 µM (top of the series) unless noted;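 also: plate controls were DMSO neutral control for no effect and bortezomib positive control for full effect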
[13] = qHTS of pediatric cancer cell lines to identify multiple opportunities for drug repurposing: Primary screen for BT-12 cells (AID 1347101);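 also: plate controls were DMSO for no effect and bortezomib positive control for full effect; nearly all actives have a fitted effect of over 25% in size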
[14] = qHTS of pediatric cancer cell lines to identify multiple opportunities for drug repurposing: Primary screen for Rh18 cells (AID 1347102); settings: Rh18 rhabdomyosarcoma viability, CellTiter-Glo luminescence, 48 h; at 46 µM (top of the series) unless noted; also: % is scaled to controls: 0 for no effect and ±100 for the full control effect; nearly all actives have a fitted effect of over 65% in size
[15] = qHTS of pediatric cancer cell lines to identify multiple opportunities for drug repurposing: Primary screen for OHS-50 cells (AID 1347103);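 also: plate controls were DMSO neutral control for no effect and bortezomib positive control for full effect; nearly all actives have a fitted effect of over 40% in size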
[16] = qHTS of pediatric cancer cell lines to identify multiple opportunities for drug repurposing: Primary screen for RD cells (AID 1347104); settings: RD rhabdomyosarcoma viability, CellTiter-Glo luminescence, 48 h; at 46 µM (top of the series) unless noted;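 also: plate controls were DMSO for no effect and bortezomib for full effect; nearly all actives have a fitted effect of over 55% in size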
[17] = qHTS of pediatric cancer cell lines to identify multiple opportunities for drug repurposing: Primary screen for MG 63 (6-TG R) cells (AID 1347105); settings: MG 63 (6-TG R) viability, CellTiter-Glo, 48 h; at 46 µM (top of the series) unless noted; also: % is scaled to controls: 0 for no effect and ±100 for the full control effect; nearly all actives have a fitted effect of over 50% in size
[18] = qHTS of pediatric cancer cell lines to identify multiple opportunities for drug repurposing: Primary screen for control Hh wild type fibroblast cells (AID 1347106); settings: Hh wild-type fibroblast viability, CellTiter-Glo luminescence, 48 h; at 46 µM (top of the series) unless noted;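 also: % is scaled to controls: 0 for no effect and ±100 for the full control effect; a drop in luminescence marks cytotoxicity and a rise apparent proliferation; nearly all actives have a fitted effect of over 55% in size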
[19] = qHTS of pediatric cancer cell lines to identify multiple opportunities for drug repurposing: Primary screen for Rh30 cells (AID 1347107); settings: Rh30 rhabdomyosarcoma viability, CellTiter-Glo luminescence, 48 h; at 46 µM (top of the series) unless noted; also: % is scaled to controls: 0 for no effect and ±100 for the full control effect; nearly all actives have a fitted effect of over 75% in size
[20] = qHTS of pediatric cancer cell lines to identify multiple opportunities for drug repurposing: Primary screen for Rh41 cells (AID 1347108); settings: Rh41 rhabdomyosarcoma viability, CellTiter-Glo luminescence, 48 h; at 46 µM (top of the series) unless noted;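 also: luminescence drop marks cytotoxic hits; nearly all actives have a fitted effect of over 70% in size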
[21] = qHTS to identify inhibitors of the type 1 interferon - major histocompatibility complex class I in skeletal muscle: primary screen against the NCATS Pharmaceutical Collection (AID 1347407); settings: human skeletal muscle cells, IFN-b-induced MHC-I HiBiT luminescence, 24 h; at 45.9 µM (top of the series) unless noted;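 also: luminescence of HiBiT knocked into endogenous HLA-B as interferon-induced MHC class I level; % is scaled to controls: 0 for no effect and ±100 for the full control effect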
In short: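 Luminescence from HiBiT-tagged endogenous HLA-B*08:01 served as the read-out of IFN-beta-induced MHC class I in CRISPR-engineered C25cl48 myoblasts. Cells received 4 ng/ml IFN-beta plus compound (high final 46 uM, […]) for 24 h.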

[22] = target: Protein phosphatase 1D (Homo sapiens) (UniProt O15297); experiment: RapidFire Mass Spectrometry qHTS Assay for Modulators of WT P53-Induced Phosphatase 1 (WIP1) (AID 1347424); settings: WIP1 dephosphorylation of phosphopeptide, RapidFire MS; at 63 µM (top of the series) unless noted;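 also: amount of dephosphorylated VEPPL-S-QETFS peptide product formed by WIP1; plate controls were DMSO wells for no effect and GSK830371 inhibitor control at 10 µM for full effect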
In short: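 10 nM WIP1 + cpd, 1 h RT; + 2 uM VEPPL-pS-QETFS, 5 min RT; stop 0.5% formic acid; labelled product standard 1 uM; RapidFire MS. Buffer 50 mM Tris pH 7.5, 30 mM MgCl2, 1 mM TCEP.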

[23] = target: Protein phosphatase 1D (Homo sapiens) (UniProt O15297); experiment: Rhodamine-PBP qHTS Assay for Modulators of WT P53-Induced Phosphatase 1 (WIP1) (AID 1347425); settings: recombinant WIP1, Rhodamine-PBP phosphate fluorescence, real-time; at 57.5 µM (top of the series) unless noted; also: % of control where 0% means no effect
In short: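 5 nM WIP1 + 10 uM Rh-PBP, 50 mM Tris pH 7.5, 30 mM MgCl2, 1 mM TCEP, 0.1 mM EGTA, BSA; cpds pinned, 1 hr RT; + 10 uM phosphopeptide; fluorescence 1-min reads x 11 min; delta = f1 - f0.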

[24] = target: Calcium and integrin-binding protein 1 (Homo sapiens) (UniProt Q99828); experiment: Primary qHTS for Identification of Calcium Integrin Binding Protein 1 (CIB1) Competitor (AID 1508620); settings: CIB1-GST / FITC-alphaIIb peptide fluorescence polarization; at 114 µM (top of the series) unless noted;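 also: GST tagged CIB1 binding a fluorescein labelled alphaIIb integrin peptide tracer; top concentration of the series differs between compounds; % is scaled to controls: 0 for no effect and ±100 for the full control effect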
[25] = A High-Content qHTS Against Drug Library for the Identification of Small Molecules that Inhibit DYT1 Early Onset Primary Dystonia-Associated Cell Pathology (AID 1645839; calls by dose curve)
In short: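 In this high-content image screen, delE TorsinA mislocalization in inducible Flp-In 293 cells is scored as %pathology, with cell count serving as the counterscreen. Compound exposure lasts 48 h under tetracycline induction in reduced-serum medium.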

CN(C(=O)Cc1ccc(Cl)c(Cl)c1)[C@H]1CC[C@@]2(CCCO2)C[C@@H]1N1CCCC1
inactive: activity change, negative = cytotoxic [2] 3.7% | Potency [3] | activity change, negative = cytotoxic [4] -9.06% | activity change, negative = cytotoxic [5] -7.19% | activity change, negative = cytotoxic [6] -22.1% | activity change, negative = cytotoxic [7] -0.586% | activity change, negative = cytotoxic [8] -1.11% | activity change, negative = cytotoxic [9] -2.44% | activity change, negative = cytotoxic [10] -22.4% | activity change, negative = cytotoxic [11] 8.96% | activity change, negative = cytotoxic [12] 4.44% | Potency [13] | activity change, negative = cytotoxic [14] 2.64% | Potency [15] | activity change, negative = cytotoxic [16] -9.67% | activity change, negative = cytotoxic [17] -19.4% | activity change, negative = cytotoxic [18] -4.97% | activity change, negative = cytotoxic [19] 18.4% | activity change, negative = cytotoxic [20] 13.7% | activity change, negative = inhibition [21] 0.79% | activity change, negative = inhibition [22] 1.75% | activity change, negative = inhibition [23] 12.7% | activity change, negative = inhibition [24] 0.329% | Potency [25]
active: Potency [1] 22.4 µM
